# Binding of CDR-mutated scFvs to a peptide of the spike HR2 region

Data: MIT Lincoln Laboratory AlphaSeq set, Li et al. 2023, doi:10.1038/s41467-023-39022-2, as distributed in FLAb.

Binding partner: SARS-CoV-2 spike HR2 peptide, sequence PDVDLGDISGINAS.

The variants keep the light chain, the linker and the frameworks of Ab-14 (scFv order VH, three GGGGS repeats, VL).
VH: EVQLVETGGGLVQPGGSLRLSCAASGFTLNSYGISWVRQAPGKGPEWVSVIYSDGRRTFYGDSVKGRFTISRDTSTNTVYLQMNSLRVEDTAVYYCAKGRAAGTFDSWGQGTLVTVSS
VL: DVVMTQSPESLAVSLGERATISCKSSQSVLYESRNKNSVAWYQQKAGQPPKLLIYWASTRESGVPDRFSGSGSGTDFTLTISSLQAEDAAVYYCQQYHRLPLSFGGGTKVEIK

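These sequences belong to a second round, designed from the earlier measurements on random variants of the parent. Several design methods are mixed in this list. In AlphaSeq, yeast of one mating type display the scFv and yeast of the other type display the target. Pairs that bind mate more often; barcode pairs of the diploids are counted by sequencing. Each replicate has its own calibration line, from reference interactions of the BCL2 family. Mating was done six times.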

Substitutions are numbered in sequence along the VH above, starting at 1 (not Kabat).
This list holds designs with at most six substitutions.
Kd is apparent (estimated from mating counts) and averaged on the log scale over replicates with a signal. Smaller is tighter.
Where no diploid with the target was found in any replicate, the entry reads "nd": below detection, most likely a poor binder, though not proof of it.
Of ten entries with the parent sequence, four were seen in most replicates (averages 2.2 nM to 240 nM), three in one and three in none, so single entries are noisy.
In the paper, a design with two or fewer of six values counts as a poor binder.
Nonspecific signal, from three strains lacking the peptide, appeared in 1% of pairings of all heavy chain designs, centred on 120 nM (5% of these signals below 7.0 nM); values are not corrected for it. Also given: how often the same scFv was detected with the empty control strains.
A sequence measured in both rounds can read differently, since the two assays cover different ranges.

For T28N+S53A+G55M+R100E, the assay gave nd (0 of 6 replicates; controls 0 of 18). With T28D+G61K+R100Q the result was 1.7 nM (6 of 6 replicates; controls 0 of 18). Variant T28Q+G61Q+A101T+S107A showed 3.2 nM (6 of 6 replicates; controls 0 of 18). With T28E+R100W+A101T the result was 2.7 nM (5 of 6 replicates; controls 1 of 18). For T28D+S63Q+A101T+S107K, the assay gave 6.0 nM (6 of 6 replicates; controls 1 of 18). Variant G61V+R100Q+A101L+S107T gave 200 nM (2 of 6 replicates; controls 0 of 18). Variant G33L+G61S+A102G gave 27 nM (4 of 6 replicates; controls 0 of 18).

With Y32Q+F59W+T104L the result was 14 nM (6 of 6 replicates; controls 0 of 18). Variant S53A+R56Y+R100S+T104L+S107I gave nd (0 of 6 replicates; controls 0 of 18). With S31E+D106R+S107T the result was nd (0 of 6 replicates; controls 0 of 18). Variant T28D+Y52S+F59L+S63G+T104W+D106N gave nd (0 of 6 replicates; controls 1 of 18). With T28E+S31M+R100K+A101T the result was 11 nM (4 of 6 replicates; controls 0 of 18). Variant T28S+F59A+G61S+A101T gave 1.5 nM (6 of 6 replicates; controls 1 of 18). Variant G26P+T28D+G61V+A101T showed 52 nM (3 of 6 replicates; controls 0 of 18).

For T28E+S31E+F59E+G61I, the assay gave 2.8 nM (6 of 6 replicates; controls 0 of 18). Variant N30D+G61I+S63D+R100K gave 2.2 nM (6 of 6 replicates; controls 0 of 18). With G61D+R100T+A101E the result was 3.4 nM (6 of 6 replicates; controls 0 of 18). With S31D+S53A+R100K+D106I the result was 1.3 nM (6 of 6 replicates; controls 0 of 18). Variant T28N+R100W+A101T showed nd (0 of 6 replicates; controls 0 of 18). Variant G61S+R100M+A102G+S107T showed 11 nM (6 of 6 replicates; controls 1 of 18). Variant D54L+G103L gave nd (0 of 6 replicates; controls 0 of 18).

Variant T28D+S31A+A101E gave 1.2 nM (6 of 6 replicates; controls 0 of 18). Variant T28D+S31E+S53A+G61I+R100E+A101I showed 290 pM (6 of 6 replicates; controls 0 of 18). Variant S31M+G61T+F105N+D106V gave nd (0 of 6 replicates; controls 0 of 18). Variant Y32C+S53A+F105N+D106K showed nd (0 of 6 replicates; controls 0 of 18). With T28Q+N30E+G61A the result was 7.3 nM (6 of 6 replicates; controls 0 of 18). With T28S+S53A+A101E the result was 350 pM (6 of 6 replicates; controls 1 of 18). Variant T28E+R56K+S63M+A101T gave 27 nM (1 of 6 replicates; controls 0 of 18).

Variant S31T+G61T+F105A+D106M gave nd (0 of 6 replicates; controls 0 of 18). For T28S+S31E+F59Q+G61I, the assay gave 4.1 nM (6 of 6 replicates; controls 0 of 18). Variant R100E+G103F showed 440 nM (2 of 6 replicates; controls 0 of 18). With T28E+R100W+A101M the result was nd (0 of 6 replicates; controls 0 of 18). For N30K+S53A+S107I, the assay gave 1.0 nM (1 of 6 replicates; controls 0 of 18). For S53A+R56M+G99T+A102P, the assay gave nd (0 of 6 replicates; controls 0 of 18). Variant N30E+S53A+S63H+D106H gave nd (0 of 6 replicates; controls 0 of 18).

For T28D+G61R+R100Q, the assay gave 3.2 nM (6 of 6 replicates; controls 0 of 18). Variant S31E+D106M gave nd (0 of 6 replicates; controls 1 of 18). With S31D+S35W+Y52P+F59Q+G61I+G99R the result was 610 nM (1 of 6 replicates; controls 1 of 18). With G61D+R100T the result was 1.8 nM (6 of 6 replicates; controls 0 of 18). Variant T28Q+S31E+R100Q+A101T gave 1.5 nM (6 of 6 replicates; controls 0 of 18). Variant T28H+R56K+R100K+A101T showed nd (0 of 6 replicates; controls 0 of 18). With S31Q+R56L+G103I+S107T the result was nd (0 of 6 replicates; controls 0 of 18).